Source: ChEMBL document CHEMBL4715803, “Synthetic Studies of Neoclerodane Diterpenes from Salvia divinorum: Identification of a Potent and Centrally Acting μ Opioid Analgesic with Reduced Abuse Liability” (J Med Chem, 2016)

Assays:
Homo sapiens [1] = species on record: Homo sapiens; assay: Selectivity ratio of EC50 for agonist activity at human delta opiod receptor expressed in CHO-K1 cells to EC50 for agonist activity at human mu opiod receptor expressed in CHO-K1 cells; format: cell-based
Homo sapiens [2] = species on record: Homo sapiens; assay: Selectivity ratio of EC50 for agonist activity at human kappa opiod receptor expressed in CHO-K1 cells to EC50 for agonist activity at human mu opiod receptor expressed in CHO-K1 cells; format: cell-based

Row | SMILES | Ratio EC50 (Homo sapiens [1]) | Ratio EC50 (Homo sapiens [2])
1 | COC(=O)[C@@H]1C=C(OC(=O)c2ccc(Cl)cc2)C(=O)[C@H]2[C@@]1(C)CC[C@H]1C(=O)O[C@H](c3ccoc3)C[C@]21C | 10 | –
2 | CC(=O)O[C@@H]1C=C(OC(=O)c2cccc(F)c2)C(=O)[C@H]2[C@@]1(C)CC[C@H]1C(=O)O[C@H](c3ccoc3)C[C@]21C | 30 | > 2000
3 | COC(=O)[C@@H]1C=C(OC(=O)c2ccc([N+](=O)[O-])cc2)C(=O)[C@H]2[C@@]1(C)CC[C@H]1C(=O)O[C@H](c3ccoc3)C[C@]21C | 25 | –
4 | COC(=O)[C@@H]1C=C(OC(=O)c2ccc(OC)cc2)C(=O)[C@H]2[C@@]1(C)CC[C@H]1C(=O)O[C@H](c3ccoc3)C[C@]21C | 15 | > 1200
5 | COC(=O)[C@@H]1C=C(OC(=O)c2ccc(F)cc2)C(=O)[C@H]2[C@@]1(C)CC[C@H]1C(=O)O[C@H](c3ccoc3)C[C@]21C | 23 | 17
6 | COC(=O)[C@@H]1C=C(OC(=O)c2cccc(OC)c2)C(=O)[C@H]2[C@@]1(C)CC[C@H]1C(=O)O[C@H](c3ccoc3)C[C@]21C | 56 | –
7 | COC(=O)[C@@H]1C=C(OC(=O)c2ccccc2F)C(=O)[C@H]2[C@@]1(C)CC[C@H]1C(=O)O[C@H](c3ccoc3)C[C@]21C | 37 | 33
8 | COC(=O)[C@@H]1C=C(OC(=O)c2ccc(C)cc2)C(=O)[C@H]2[C@@]1(C)CC[C@H]1C(=O)O[C@H](c3ccoc3)C[C@]21C | 17 | –
